Measurements published in PubChem BioAssay (NCI).
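Dose response: 5 concentrations. Exposure: 48 h. Format: 96-well plates. Endpoint: linear interpolation; highest concentration if not reached. GI50 marks 50% less growth. TGI denotes the concentration required for complete inhibition of growth.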

Key:
Test in all cases: NCI tumour cell line growth inhibition, 48 h
CCRF-CEM leukemia = test system: CCRF-CEM leukemia
SW-620 colon = test system: SW-620 colon
MOLT-4 leukemia = test system: MOLT-4 leukemia
CAKI-1 renal = test system: CAKI-1 renal
OVCAR-5 ovarian = test system: OVCAR-5 ovarian
HT29 colon = test system: HT29 colon
SF-539 CNS = test system: SF-539 CNS
MALME-3M melanoma = test system: MALME-3M melanoma
SK-OV-3 ovarian = test system: SK-OV-3 ovarian
KM20L2 colon = test system: KM20L2 colon
NCI-H460 lung = test system: NCI-H460 lung
P388 leukemia = test system: P388 leukemia
HOP-92 NSCLC = test system: HOP-92 NSCLC
HCT-15 colon = test system: HCT-15 colon
DLD-1 colon = test system: DLD-1 colon
SN12K1 renal = test system: SN12K1 renal
SK-MEL-28 melanoma = test system: SK-MEL-28 melanoma
DMS 273 small cell lung = test system: DMS 273 small cell lung
SNB-75 CNS = test system: SNB-75 CNS
A498 renal = test system: A498 renal
RXF 393 renal = test system: RXF 393 renal
M19-MEL melanoma = test system: M19-MEL melanoma
OVCAR-8 ovarian = test system: OVCAR-8 ovarian
A549 NSCLC = test system: A549 NSCLC
HCT-116 colon = test system: HCT-116 colon
HCC-2998 colon = test system: HCC-2998 colon
COLO 205 colon = test system: COLO 205 colon
SN12C renal = test system: SN12C renal
SNB-19 CNS = test system: SNB-19 CNS
DMS 114 small cell lung = test system: DMS 114 small cell lung
IGROV1 ovarian = test system: IGROV1 ovarian
MCF7 breast = test system: MCF7 breast
RPMI-8226 leukemia = test system: RPMI-8226 leukemia
UO-31 renal = test system: UO-31 renal
SNB-78 CNS = test system: SNB-78 CNS
UACC-257 melanoma = test system: UACC-257 melanoma
SK-MEL-2 melanoma = test system: SK-MEL-2 melanoma
SF-268 CNS = test system: SF-268 CNS
NCI-H322M lung = test system: NCI-H322M lung
SK-MEL-5 melanoma = test system: SK-MEL-5 melanoma
XF 498 CNS = test system: XF 498 CNS
EKVX NSCLC = test system: EKVX NSCLC
UACC-62 melanoma = test system: UACC-62 melanoma
K-562 leukemia = test system: K-562 leukemia
U251 CNS = test system: U251 CNS
NCI-H226 lung = test system: NCI-H226 lung
OVCAR-3 ovarian = test system: OVCAR-3 ovarian
HOP-62 NSCLC = test system: HOP-62 NSCLC
HL-60(TB) leukemia = test system: HL-60(TB) leukemia
NCI/ADR-RES ovarian = test system: NCI/ADR-RES ovarian
OVCAR-4 ovarian = test system: OVCAR-4 ovarian
P388/ADR leukemia = test system: P388/ADR leukemia
NCI-H522 lung = test system: NCI-H522 lung
SF-295 CNS = test system: SF-295 CNS
LOX IMVI melanoma = test system: LOX IMVI melanoma
HOP-18 NSCLC = test system: HOP-18 NSCLC
KM12 colon = test system: KM12 colon

## COc1cc2c(c3oc4cccc(O)c4c(=O)c13)[C@@H]1C=CO[C@@H]1O2
CCRF-CEM leukemia
  GI50: 19 µM
  TGI: > 125 µM
SW-620 colon
  GI50: 5.02 µM
  TGI: > 125 µM
MOLT-4 leukemia
  GI50: 3.5 µM
  TGI: 26.9 µM
CAKI-1 renal
  GI50: 1230 nM
  TGI: 10.2 µM
OVCAR-5 ovarian
  GI50: 10.6 µM
  TGI: 60.7 µM
HT29 colon
  GI50: 35.6 µM
  TGI: > 125 µM
SF-539 CNS
  GI50: 13.8 µM
  TGI: 42.7 µM
MALME-3M melanoma
  GI50: 54.9 µM
  TGI: > 125 µM
SK-OV-3 ovarian
  GI50: 19.7 µM
  TGI: 64 µM
KM20L2 colon
  GI50: 11.7 µM
  TGI: > 125 µM
NCI-H460 lung
  GI50: 3.98 µM
  TGI: 60.6 µM
P388 leukemia
  GI50: 115 nM
  TGI: 1720 nM
HOP-92 NSCLC
  GI50: 10.4 µM
  TGI: 39.5 µM
HCT-15 colon
  GI50: 15 µM
  TGI: > 125 µM
DLD-1 colon
  GI50: 452 nM
  TGI: 19.8 µM
SN12K1 renal
  GI50: 6.1 µM
  TGI: 29.2 µM
SK-MEL-28 melanoma
  GI50: 68.7 µM
  TGI: > 125 µM
DMS 273 small cell lung
  GI50: 684 nM
  TGI: > 125 µM
SNB-75 CNS
  GI50: 8.28 µM
  TGI: 28.5 µM
A498 renal
  GI50: 7.94 µM
  TGI: 58.7 µM
RXF 393 renal
  GI50: 13.8 µM
  TGI: 38.8 µM
M19-MEL melanoma
  GI50: 35 µM
  TGI: > 125 µM
OVCAR-8 ovarian
  GI50: 7.85 µM
  TGI: 48.6 µM
A549 NSCLC
  GI50: 2800 nM
  TGI: > 125 µM
HCT-116 colon
  GI50: 20.4 µM
  TGI: > 125 µM
HCC-2998 colon
  GI50: 3.7 µM
  TGI: 9.06 µM
COLO 205 colon
  GI50: 2140 nM
  TGI: 36.9 µM
SN12C renal
  GI50: 2220 nM
  TGI: 75.3 µM
SNB-19 CNS
  GI50: 34.6 µM
  TGI: 123 µM
DMS 114 small cell lung
  GI50: 11.6 µM
  TGI: 104 µM
IGROV1 ovarian
  GI50: 12.3 µM
  TGI: 71.5 µM
MCF7 breast
  GI50: 24.5 nM
  TGI: 72 µM
RPMI-8226 leukemia
  GI50: 101 µM
  TGI: > 125 µM
UO-31 renal
  GI50: 3.15 µM
  TGI: 79.6 µM
SNB-78 CNS
  GI50: 34.3 µM
  TGI: 111 µM
UACC-257 melanoma
  GI50: 54.9 µM
  TGI: > 125 µM
SK-MEL-2 melanoma
  GI50: 4.16 µM
  TGI: 32.8 µM
SF-268 CNS
  GI50: 11.7 µM
  TGI: 83.7 µM
NCI-H322M lung
  GI50: 67.1 µM
  TGI: > 125 µM
SK-MEL-5 melanoma
  GI50: 107 µM
  TGI: > 125 µM
XF 498 CNS
  GI50: 14.1 µM
  TGI: 38.3 µM
EKVX NSCLC
  GI50: 1030 nM
  TGI: 34.8 µM
UACC-62 melanoma
  GI50: 938 nM
  TGI: 20.8 µM
K-562 leukemia
  GI50: 125 µM
  TGI: > 125 µM
U251 CNS
  GI50: 14.9 µM
  TGI: 65.7 µM
NCI-H226 lung
  GI50: 15.1 µM
  TGI: 94 µM
OVCAR-3 ovarian
  GI50: 19.5 µM
  TGI: 123 µM
HOP-62 NSCLC
  GI50: 6.41 µM
  TGI: 24.3 µM
HL-60(TB) leukemia
  GI50: 5.57 µM
  TGI: > 125 µM
NCI/ADR-RES ovarian
  GI50: 4.66 µM
  TGI: 67.9 µM
OVCAR-4 ovarian
  GI50: 60.4 µM
  TGI: > 125 µM
P388/ADR leukemia
  GI50: 382 nM
  TGI: > 125 µM
NCI-H522 lung
  GI50: 42.1 µM
  TGI: > 125 µM
SF-295 CNS
  GI50: 13.3 µM
  TGI: 26.4 µM
LOX IMVI melanoma
  GI50: 17.9 µM
  TGI: 70.3 µM
HOP-18 NSCLC
  GI50: 125 µM
  TGI: > 125 µM
KM12 colon
  GI50: 2810 nM
  TGI: 92.4 µM
